# Data taken from article PMC3555145 (Biomacromolecules, 2012).
# Legend:
# [1] = dynamic light scattering
# Raw 264.7 and HeLa cells = details: MTT, ≤ 2 μg/well, 4 h serum-free then 20 h serum-containing medium, 37 °C, n = 3
Substance,"Cotton effect in CD spectrum (CD in water, scanning range 190–250 nm)",aggregation in aqueous solution [1],"β-sheet content (secondary structure) (CD in water, CDPro (CONTIN method), remainder significant portion of random coil) [%]","stability of β-sheet conformation against pH changes (–[θ]216) (CD, aqueous solution, pH 1 to pH 9)",cytotoxicity at low concentrations (Raw 264.7 and HeLa cells)
poly(ethylene glycol)-block-poly(O-pentenyl-L-serine-graft-cysteamine) [PEG112-b-(PPELS20-g-CA)],no Cotton effect,–,–,–,–
poly(ethylene glycol)-block-poly(O-pentenyl-L-serine-graft-cysteamine) [PEG112-b-(PPELS70-g-CA)],–,some degree of aggregation,45,remarkable stability against pH changes,unappreciable toxicity
